Ab-14 heavy chain CDR variants: yeast mating affinities

Target peptide (SARS-CoV-2 spike, HR2 region): PDVDLGDISGINAS

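The starting antibody came from a phage panning campaign against this peptide. Library AAYL49 holds single substitutions and randomly drawn double and triple substitutions in the CDRs. In AlphaSeq, yeast of one mating type display the scFv and yeast of the other type display the target. Pairs that bind mate more often; barcode pairs of the diploids are counted by sequencing. A regression on co-assayed BCL2-family reference pairs converts the normalised counts of each replicate to an apparent Kd. Each pool was mated in three replicate cultures.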

Parent scFv Ab-14: VH joined to VL by a (GGGGS)3 linker. Changes lie in the heavy chain CDRs alone.
VH: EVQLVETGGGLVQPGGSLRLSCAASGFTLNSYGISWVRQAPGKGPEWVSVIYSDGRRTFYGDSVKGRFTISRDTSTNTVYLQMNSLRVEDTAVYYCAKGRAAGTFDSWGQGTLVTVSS
VL: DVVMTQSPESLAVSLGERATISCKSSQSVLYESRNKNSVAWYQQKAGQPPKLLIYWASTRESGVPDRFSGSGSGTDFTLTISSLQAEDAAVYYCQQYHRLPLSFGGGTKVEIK

Positions count from residue 1 of the parent VH; G33C puts C in place of G. Every variant below is changed at S35 of the VH (sequential numbering). Affinities are written as log10 Kd with Kd in nM; a lower number is a better binder. The mean shown is taken over the replicates in which the pair was detected. An entry "not detected" has no value in the source: the pair was not observed among the diploids in any replicate. This suggests poor binding but is not conclusive. Background: pairings of library AAYL49 with three empty control strains gave a value in 15% of cases (median 4.06, 5th percentile 2.83). Values in that range, when seen in few replicates, are hard to tell from nonspecific mating.

| changes | mean, log10 nM | replicates with signal |
|---|---|---|
| G33C+S35I+I51G | not detected | 0 of 3 |
| N30Y+G33R+S35F | not detected | 0 of 3 |
| S35G+R56A+F59H | not detected | 0 of 3 |
| S35Q+V50A+I51R | 3.92 | 1 of 3 |
| F27V+S35D | 3.57 | 1 of 3 |
| S35Y+R57V | not detected | 0 of 3 |
| T28G+S35E+F59L | 5.23 | 1 of 3 |
| T28K+I34S+S35H | not detected | 0 of 3 |
| F27V+S35V+V50Q | 3.56 | 2 of 3 |
| S35E+V50K+A102M | not detected | 0 of 3 |
| G26W+S35F+D62L | not detected | 0 of 3 |
| S35W+S63Y+G99T | not detected | 0 of 3 |
| S35P+D54C | 4.89 | 2 of 3 |
| S35D+D54M+Y60F | 3.48 | 1 of 3 |
| T28V+S35V | 2.68 | 1 of 3 |
| L29G+S35E+G103Y | not detected | 0 of 3 |
| S35T+F59R+G99P | not detected | 0 of 3 |
| S35H+I51W+Y52G | 4.24 | 1 of 3 |
| G26E+S35K+F59R | 4.43 | 3 of 3 |
| S35T+G55V+F59Q | not detected | 0 of 3 |
| S35H+R56Y | 1.86 | 3 of 3 |
| L29C+S35A | 5.03 | 1 of 3 |
| S35H+G55H+Y60T | 3.57 | 1 of 3 |
| S35R+V50M+T104S | not detected | 0 of 3 |
| S35D+D106W+S107H | not detected | 0 of 3 |
| S35A+Y60F+G99H | not detected | 0 of 3 |
| S35M+V50G+Y60I | not detected | 0 of 3 |
| G33T+S35I+R57D | 4.75 | 2 of 3 |
| G26F+S35A | 4.56 | 1 of 3 |
| S35A+I51E+D54L | 3.18 | 1 of 3 |
| F27S+S35W+G61V | not detected | 0 of 3 |
| Y32E+S35V+K65L | not detected | 0 of 3 |
| Y32R+S35H+S53N | 2.27 | 1 of 3 |
| F27T+S35Y+A102N | 4.88 | 2 of 3 |
| S35C+F59V+A102C | 3.88 | 1 of 3 |
| S35M | not detected | 0 of 3 |
| G33S+S35H+V50A | 3.55 | 1 of 3 |
| I34Q+S35E+F59S | not detected | 0 of 3 |
| F27V+S35R+Y52F | not detected | 0 of 3 |
| G26Q+T28P+S35W | 1.33 | 1 of 3 |
| S35M+Y52M+D54H | 4.71 | 3 of 3 |
| S35W+S53K+R100C | 3.75 | 1 of 3 |
| S35A+T58C+G99K | 4.37 | 1 of 3 |
| S35P+F59R+K65W | not detected | 0 of 3 |
| I34D+S35T+S63A | 5.11 | 1 of 3 |
| S35V+V50I+G103A | not detected | 0 of 3 |
| L29T+S35V+F105P | 4.59 | 1 of 3 |
| S35Y+G99I+A101C | not detected | 0 of 3 |
| L29W+S35G+D54C | not detected | 0 of 3 |
| S35A+R56C+D62A | 6.21 | 1 of 3 |
| T28W+S31F+S35C | 2.95 | 1 of 3 |
| T28W+S35P+D106F | not detected | 0 of 3 |
| G33L+S35N+G103W | 4.39 | 1 of 3 |
| N30K+S35G+G103L | not detected | 0 of 3 |

Picked from the list: the 3 lowest averages where every replicate gave a value.

changes	mean, log10 nM	replicates with signal
S35H+R56Y	1.86	3 of 3
G26E+S35K+F59R	4.43	3 of 3
S35M+Y52M+D54H	4.71	3 of 3

Reference: Engelhart et al. 2022, doi:10.1038/s41597-022-01779-4. File: FLAb, binding data.